In ChEMBL document CHEMBL1133449 (J Med Chem, 2000):

Tests used:
Cholinesterase = Cholinesterase (Homo sapiens, UniProt P06276); details: Serum
Acetylcholinesterase [1] = molecular target: Acetylcholinesterase (Bos taurus, UniProt P23795)
Acetylcholinesterase [2] = molecular target: Acetylcholinesterase (Homo sapiens, UniProt P22303)

SMILES	IC50 (Cholinesterase)	IC50 (Acetylcholinesterase [1]) [nM]	IC50 (Acetylcholinesterase [2]) [nM]
CCC1=CC2Cc3nc4cc(F)ccc4c(N)c3C(C1)C2 (stereo unspecified)	32.4 nM and 185 nM and 57.4 nM	–	–
CCC1=CC2Cc3nc4ccc(Cl)cc4c(N)c3C(C1)C2 (stereo unspecified)	762 nM	257	425
CCC1=CC2Cc3nc4cccc(F)c4c(N)c3C(C1)C2 (stereo unspecified)	109 nM	–	29.5

Several values for one entry are separate records, joined by “and”; a condition that tells them apart may be missing. Equal values may be shown once.
